From PubChem
JMJD2E inh: blocks human JMJD2E demethylase activity; AID 2147; B2RXH2; Potency, µM (highest dose often 57.1 µM), inactives show top-dose activity change, negative = inhibition, actives largely listed as inhibitors; hit rate 1.6% among 230,000; JMJD2E catalytic domain, FDH-coupled NADH fluorescence (FDH is formaldehyde dehydrogenase);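 further: potency means the concentration at half of the fitted maximal effect; 0% = wells with enzyme and -100% = buffer wells without enzyme; nearly all actives have a fitted effect of over 50% in size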
ALDH1A1 block: inhibitors of human aldehyde dehydrogenase 1A1; P00352; Purified ALDH1A1, NADH fluorescence, propionaldehyde substrate; Potency, µM (top dose mostly 75.3 µM), without a hit: at the highest dose activity, negative = inhibition, usual class: inhibitors; hit rate 7.3% among 220,000; AID 1030; active means well fitted inhibition curve with a large enough effect, not every such curve was filed as active; inconclusive means small, poorly fitted or top-dose-only effect, or another doubt; inactive means no such curve, though single readings can be large or run the other way;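 further: potency means the concentration at half of the fitted maximal effect; plate controls were no enzyme wells and a reference inhibitor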
G9a block: blocks human histone lysine methyltransferase G9a; Potency, µM (top dose mostly 102 µM), inactives show at the highest dose activity, negative = inhibition, usual class: inhibitors; G9a H3K9 monomethylation, AlphaScreen, 2 h; hit rate 8.8% among 350,000; Q96KQ7; further: potency means the concentration at half of the fitted maximal effect; on the % scale 0 is the no-effect control and ±100 the full control effect; nearly all actives have a fitted effect of over 75% in size
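Step 1: enzyme (final 20 nM) with compound, 15 min RT. Step 2: substrate peptide 500 nM and SAM 20 uM, 2 h RT. Step 3: anti-H3K9me1 antibody and AlphaScreen beads, 10 min, then plate read.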
miR-21 FLuc: raises the signal of a miR-21 reporter; HeLa miR-21 FLuc reporter, luciferase, 48 h; Potency, µM (highest dose often 38.3 µM), inactives show at the highest dose reporter change, positive = more light; 340,000 tested, under 10 active; active = well fitted rising curve with a large enough effect; inconclusive = small, poorly fitted or top-dose-only effect; inactive = no such curve, though single readings can be large or run the other way;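 note: % of control where 0% means no effect; miR-21 action dims this reporter so a rising signal means less miR-21 action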
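HeLa miR-21-FLuc reporter line, endogenous miR-21; 2000 cells/well in DMEM/10% FBS; compound titration up to ~40uM final, 48 h, 37 degree Celsius; luciferase detection reagent, 15 min lysis, CCD luminescence.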
Sfp inh: inhibitors of Bacillus subtilis Sfp phosphopantetheinyl transferase; Q9F4F7; Biochemical Sfp PPTase activity, qHTS; Potency, µM, inactives show max response, negative = inhibition, actives largely listed as inhibitors; hit rate 3.5% among 310,000; AID 1490; active means well fitted inhibition curve with a large enough effect; inconclusive means small, poorly fitted or top-dose-only effect, or another doubt; inactive means no such curve, though single readings can be large or run the other way;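 further: the enzyme is Sfp with the accession as filed and its product quenches rhodamine fluorescence; potency means the concentration at half of the fitted maximal effect; 0% = enzyme reaction without inhibitor and -100% = no enzyme wells; top concentration of the series not given in the record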
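Buffer: 50 mM Hepes-Na pH 7.6, 10 mM MgCl2, 0.01% Nonidet P-40, 0.01% BSA. Enzyme 15 nM, pre-exposed to compound 15 min; substrates then added and fluorescence change tracked over 30 min.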
Lamin A splicing: modulators of lamin A splicing. HeLa LMNA splicing GFP/RFP minigene ratio, 48 h. Potency, µM (titrated, usually from 46.1 µM), for the others: at the highest dose ratio change, negative = inhibition, usual class: inhibitors. hit rate 0.01% among 200,000. AID 1487; active means well fitted inhibition curve with a large enough effect in the signal ratio, with a control signal flat, not every such curve was filed as active; inconclusive means small, poorly fitted or top-dose-only effect, or effect the other way, or a change in a side signal; the % refers to the signal ratio; further: potency means the concentration at half of the fitted maximal effect; on the % scale 0 is the no-effect control and ±100 the full control effect
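S3 HeLa cells stably expressing lamin A-EGFP splicing minigene plus DsRed2, 600 cells/well, 48 h compound exposure at 37C. Laser-scanning cytometry; analysed as GFP (500-530 nm)/RFP (575-640 nm) total intensity ratio; 0.5% DMSO vehicle.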
An asterisk follows results filed as active; [ ] = another dose, or the depositor's remark. Shown are actives, neighbours in structure and some others; about 13% of the full set was active somewhere. Unless noted, the call rests on the fitted dose curve; in most records, active means well fitted curve in the direction sought with a large enough effect; inconclusive means small, poorly fitted or top-dose-only effect, or another doubt; inactive means no such curve, though single readings can be large; an effect the other way counts as inactive or inconclusive.

For COc1ccc(/C=C2\SC(=S)N(C(Cc3ccccc3)C(=O)O)C2=O)cc1 (configuration not stated) the results were JMJD2E inh -2%, ALDH1A1 block inconclusive, G9a block 25µM*, miR-21 FLuc -4%, Sfp inh -42% and Lamin A splicing -3%[46 µM].
`COc1ccc(/C=C2\SC(=S)N(CC(=O)N3CCN(C)CC3)C2=O)cc1` gave JMJD2E inh -2%, G9a block -22%, miR-21 FLuc 0% and Sfp inh -2%.
Screening O=C(NN1C(=O)/C(=C\c2cccnc2)SC1=S)C(c1ccccc1)c1ccccc1 returned JMJD2E inh -8%, ALDH1A1 block -10%, G9a block 32µM*, miR-21 FLuc -2%, Sfp inh -7% and Lamin A splicing -21%.
Screening CC(=O)NN1C(=O)/C(=C/c2ccc(C(C)C)cc2)SC1=S returned JMJD2E inh -5%, ALDH1A1 block 4µM*, G9a block -21%[59 µM], miR-21 FLuc -2%, Sfp inh -13% and Lamin A splicing -10%.
Screening COc1ccc(NS(=O)(=O)c2ccc3[nH]c4c(c3c2)CCCC4)c(OC)c1 returned G9a block 10µM*, miR-21 FLuc inconclusive and Lamin A splicing inconclusive.
`COc1ccc(OC)c(CNS(=O)(=O)c2ccc3[nH]c4c(c3c2)CCCCC4)c1` gave G9a block 13µM*, miR-21 FLuc 8% and Lamin A splicing inconclusive.
Screening COc1ccc(NS(=O)(=O)c2ccc3[nH]c4c(c3c2)CCCCC4)cc1 returned G9a block inconclusive, miR-21 FLuc -11% and Lamin A splicing inconclusive.
`C#CCOc1ccc(/C=C2/C(=O)ON=C2C)cc1Br` gave G9a block 35µM*, miR-21 FLuc 2% and Sfp inh 56µM*.
For C#CCOc1c(Br)cc(/C=N/O)cc1OCC the results were JMJD2E inh 9%, ALDH1A1 block 6%, G9a block 29%[59 µM], miR-21 FLuc 2%, Sfp inh 9% and Lamin A splicing 21%.
`N#C/C(=C\c1ccc(O)c(Br)c1)C(=O)NCc1ccccc1` gave JMJD2E inh 2%, ALDH1A1 block inconclusive, miR-21 FLuc -3% and Sfp inh -20%.
C#CCOc1ccc(Cl)cc1/C=C1/C(=O)ON=C1C was read as G9a block 32µM*, miR-21 FLuc 7% and Sfp inh 50µM*.
For CC1=NOC(=O)/C1=C/c1ccc(O)c(Br)c1 the results were G9a block 45µM*, miR-21 FLuc -2% and Sfp inh -29%.
For COc1cc(NC(=O)C(CCSC)NS(=O)(=O)c2ccc3c(c2)oc(=O)n3C)cc(OC)c1 (configuration not stated) the results were G9a block 6%[59 µM], miR-21 FLuc 3% and Lamin A splicing -7%[46 µM].
`CCOc1ccc(NC(=O)C(=O)NCC(c2cccnc2)N2CCc3ccccc32)cc1` (configuration not stated) gave G9a block -10%[59 µM], miR-21 FLuc -10% and Lamin A splicing 11%[46 µM].
Screening O=C(Nc1cc(NC(=O)c2ccccc2Cl)ccc1Cl)c1ccccc1 returned G9a block 4%[59 µM] and miR-21 FLuc -31%.
CCOc1ccc(OCCC(=O)OCC(=O)NCc2ccccc2)cc1 was read as G9a block 30%, miR-21 FLuc -2% and Sfp inh 12%.
Screening O=C(NCc1ccccc1Cl)c1cc2c(s1)-c1ccc(Cl)cc1SC2 returned G9a block 17%[59 µM] and miR-21 FLuc -18%.
Screening Cc1cc(C(=O)CN2C(=O)C(=O)N(Cc3ccccc3)C2=O)c(C)n1-c1ccccc1F returned JMJD2E inh 0%, ALDH1A1 block 13%, G9a block -4%, miR-21 FLuc 1%, Sfp inh 24% and Lamin A splicing inconclusive.
Cc1cc(C(=O)CN2CCC(C)CC2)c(C)n1-c1ccccc1F was read as JMJD2E inh -22%, ALDH1A1 block -12%, G9a block 50µM*, miR-21 FLuc 22%, Sfp inh 2% and Lamin A splicing -2%.
COCCNc1nnc(SCC(=O)NNC(=O)c2ccc([N+](=O)[O-])cc2)s1 was read as G9a block 35µM*.
For NC1=NC[C@@H](Cc2ccc(O)cc2)N1CCc1cccc2ccccc12 the results were JMJD2E inh 2%, G9a block 24%[12.7 µM], miR-21 FLuc 10% and Sfp inh 89µM*.
For COc1ccc(CNCCCC(=O)Nc2c(Cl)ccc(C)c2Cl)cc1OC the results were G9a block 3.2µM*, miR-21 FLuc 0% and Sfp inh -16%.
`COc1ccc(CCNCCC(=O)Nc2c(C)cc(C)cc2C)cc1OC` gave JMJD2E inh 11%, ALDH1A1 block 14%, G9a block 5%[59 µM], miR-21 FLuc -5%, Sfp inh 12% and Lamin A splicing -6%.
`COCCNC(=O)C(c1ccc(O)cc1)N(Cc1ccccc1)C(=O)CCC(=O)Nc1nccs1` (configuration not stated) gave G9a block 2%, miR-21 FLuc 12% and Sfp inh 15%.
For Cc1cc(C)n(CC(=O)N/N=C/c2ccc(C)o2)n1 the results were JMJD2E inh -2%, ALDH1A1 block 7%, G9a block -7%, miR-21 FLuc -1%, Sfp inh 11% and Lamin A splicing 0%.
Screening Cn1cccc1CC(=O)N/N=C/C=C/c1ccco1 returned JMJD2E inh 4%, ALDH1A1 block 3%, G9a block 13µM*, miR-21 FLuc -7%, Sfp inh 14µM* and Lamin A splicing 13%.
`Cc1ccc(/C=N/NC(=O)CN2C(=O)CSc3ccccc32)o1` gave JMJD2E inh -2%, G9a block 45µM*, miR-21 FLuc 0% and Sfp inh inconclusive.
Cc1ccc(/C=N\NC(=O)Cc2cccn2C)o1 was read as JMJD2E inh inconclusive, ALDH1A1 block inconclusive, G9a block 28µM*, miR-21 FLuc 3%, Sfp inh 40µM* and Lamin A splicing inconclusive.
O=C(CN1c2ccccc2Sc2ccccc21)N/N=C/c1ccccc1 was read as JMJD2E inh 6%, G9a block -23%[59 µM], miR-21 FLuc 0% and Sfp inh 16%.
For Cn1cccc1CC(=O)N/N=C/c1ccc(Cl)cc1 the results were JMJD2E inh -5%, miR-21 FLuc -27% and Sfp inh 9%.
Screening Cn1cccc1CC(=O)N/N=C/c1ccc([N+](=O)[O-])cc1 returned JMJD2E inh -8%, ALDH1A1 block inconclusive, G9a block 50µM*, miR-21 FLuc 2% and Sfp inh -6%.

Entries from the list above that contain a nitro group on carbon, in the order listed:
COCCNc1nnc(SCC(=O)NNC(=O)c2ccc([N+](=O)[O-])cc2)s1 was read as G9a block 35µM*.
Screening Cn1cccc1CC(=O)N/N=C/c1ccc([N+](=O)[O-])cc1 returned JMJD2E inh -8%, ALDH1A1 block inconclusive, G9a block 50µM*, miR-21 FLuc 2% and Sfp inh -6%.

Grouped by structure, the compounds so far containing fluorine.
Screening Cc1cc(C(=O)CN2C(=O)C(=O)N(Cc3ccccc3)C2=O)c(C)n1-c1ccccc1F returned JMJD2E inh 0%, ALDH1A1 block 13%, G9a block -4%, miR-21 FLuc 1%, Sfp inh 24% and Lamin A splicing inconclusive.
Cc1cc(C(=O)CN2CCC(C)CC2)c(C)n1-c1ccccc1F was read as JMJD2E inh -22%, ALDH1A1 block -12%, G9a block 50µM*, miR-21 FLuc 22%, Sfp inh 2% and Lamin A splicing -2%.
